# Results as given in patent publication US6753348B2, “BTK inhibitors and methods for their identification and use” (Parker Hughes Institute, priority 1998, dated 2004).
# By UniProt entry, the sequences of proteins in these tests, tags left out. Where a name states a change or a piece, a line headed by the entry shows the natural chain unless it says otherwise.
# UniProt P35991: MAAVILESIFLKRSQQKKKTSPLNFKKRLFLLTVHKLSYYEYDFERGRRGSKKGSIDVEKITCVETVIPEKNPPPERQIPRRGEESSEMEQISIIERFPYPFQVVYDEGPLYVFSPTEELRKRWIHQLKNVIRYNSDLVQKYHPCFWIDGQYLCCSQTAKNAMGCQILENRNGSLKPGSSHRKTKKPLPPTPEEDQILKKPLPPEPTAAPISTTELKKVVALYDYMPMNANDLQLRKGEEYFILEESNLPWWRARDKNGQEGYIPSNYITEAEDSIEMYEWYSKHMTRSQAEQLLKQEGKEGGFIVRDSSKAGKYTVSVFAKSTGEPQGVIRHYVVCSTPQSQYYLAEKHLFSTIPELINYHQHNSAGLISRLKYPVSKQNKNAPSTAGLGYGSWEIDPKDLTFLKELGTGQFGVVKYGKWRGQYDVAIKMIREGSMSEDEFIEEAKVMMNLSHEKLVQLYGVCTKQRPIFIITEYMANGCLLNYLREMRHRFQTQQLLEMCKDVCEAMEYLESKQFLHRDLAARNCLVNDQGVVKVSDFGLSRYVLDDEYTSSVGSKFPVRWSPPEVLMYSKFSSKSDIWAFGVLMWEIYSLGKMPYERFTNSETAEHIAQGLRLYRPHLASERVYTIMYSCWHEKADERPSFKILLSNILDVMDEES
# Where “and” joins values, the source holds several entries; their conditions need not be identical. Identical values can stand only once.
# Target: recombinant BTK expressed in a baculovirus vector expression system (Mus musculus, UniProt P35991)
# Assay: biochemical
structure (smiles),measurement,value
"C/C(O)=C(\C#N)C(=O)Nc1cc(Br)ccc1Br [LFM-A13, α-Cyano-β-hydroxy-β-methyl-N-(2,5-dibromophenyl)-propenamide]",IC50,2500 nM and ~2500 nM
